We go through 3 substances from patent publication US5914319A, “Antithrombotic agents” (Eli Lilly and Company, priority 1995, dated 1999).

This series is described as follows: Index of bioavailability (% Relative Activity from plasma TT time course). The format is in vivo. The note with it: dose-adjusted AUC of plasma TT time course, p.o. versus i.v. bolus.
“1-Piq-Pro-p-NHCH2 C6 H4 C(NH)NH2.2HCl [Example 18]”: the “% oral/i.v. activity (Rat)” value worked out at 12%.
Take “D-hPro-Pro-p-NHCH2 C6 H4 C(NH)NH2.HCl [Example 17]”: the “% oral/i.v. activity (Rat)” value is recorded as 15%.
As to “EtSO2 -D-Phe-Pro-p-NHCH2 --C6 H4 C(=NH)NH2.HCl [Example 23]”, the “% oral/i.v. activity (Rat)” value was found to be 12%.
